Results reported in PMC6469174 (Pharmaceuticals, 2019).

Amino acid sequences for entries named in this document (tags omitted). Residues count along the entry.
UniProt P01375, 77-233: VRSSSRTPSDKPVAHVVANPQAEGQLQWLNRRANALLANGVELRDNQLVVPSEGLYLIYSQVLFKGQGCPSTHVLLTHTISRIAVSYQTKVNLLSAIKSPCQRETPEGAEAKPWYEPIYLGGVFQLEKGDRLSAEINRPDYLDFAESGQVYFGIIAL

Target: TNF-α (UniProt P01375 77-233)
Experiment: cell-based or functional assay

Binder | potency ratio to the in-house standard (pool of three batches of the originator); neutralisation of TNF-α-induced necroptosis of L929 cells, Alamar blue; Average | potency ratio to the in-house standard (pool of three batches of the originator); neutralisation of TNF-α-induced necroptosis of L929 cells, Alamar blue; Replicate 1 | potency ratio to the in-house standard (pool of three batches of the originator); neutralisation of TNF-α-induced necroptosis of L929 cells, Alamar blue; Replicate 2 | potency ratio to the in-house standard (pool of three batches of the originator); neutralisation of TNF-α-induced necroptosis of L929 cells, Alamar blue; treatment control sample; Average | potency ratio to the in-house standard (pool of three batches of the originator); neutralisation of TNF-α-induced necroptosis of L929 cells, Alamar blue; treatment control sample; Replicate 1 | potency ratio to the in-house standard (pool of three batches of the originator); neutralisation of TNF-α-induced necroptosis of L929 cells, Alamar blue; treatment control sample; Replicate 2
N-deglycosylated Altebrel™ (proposed etanercept biosimilar), lot 9202008 (Fc fusion, UniProt P20333 23-257, looked up, N-glycans (asparagine 149, 171, 317) removed with PNGase F; O-glycosylated; C-terminal lysine cleaved) LPAQVAFTPYAPEPGSTCRLREYYDQTAQMCCSKCSPGQHAKVFCTKTSDTVCDSCEDSTYTQLWNWVPECLSCGSRCSSDQVETQACTREQNRICTCRPGWYCALSKQEGCRLCAPLRKCRPGFGVARPGTETSDVVCKPCAPGTFSNTTSSTDICRPHQICNVVAIPGNASMDAVCTSTSPTRSMAPGAVHLPQPVSTRSQHTQPTPEPSTAPSTSFLLPMGPSPPAEGSTGD | 0.87 | 0.79 | 0.95 | – | – | –
Enbrel® (etanercept, the originator), lot H17609 (Fc fusion, UniProt P20333 23-257, looked up, N-glycosylated at asparagine 149 and 171 (TNFr domain) and asparagine 317 (Fc domain); O-glycosylated (N-terminal peptide, linker domain, hinge, e.g. serine 259); C-terminal lysine cleaved; methionine oxidation in part (Met 30, 187, 272, 378, 448)) LPAQVAFTPYAPEPGSTCRLREYYDQTAQMCCSKCSPGQHAKVFCTKTSDTVCDSCEDSTYTQLWNWVPECLSCGSRCSSDQVETQACTREQNRICTCRPGWYCALSKQEGCRLCAPLRKCRPGFGVARPGTETSDVVCKPCAPGTFSNTTSSTDICRPHQICNVVAIPGNASMDAVCTSTSPTRSMAPGAVHLPQPVSTRSQHTQPTPEPSTAPSTSFLLPMGPSPPAEGSTGD | – | – | – | 0.97 | 0.85 | 1.08
N-deglycosylated Enbrel® (etanercept), lot H17609 (Fc fusion, UniProt P20333 23-257, looked up, N-glycans (asparagine 149, 171, 317) removed with PNGase F; O-glycosylated; C-terminal lysine cleaved) LPAQVAFTPYAPEPGSTCRLREYYDQTAQMCCSKCSPGQHAKVFCTKTSDTVCDSCEDSTYTQLWNWVPECLSCGSRCSSDQVETQACTREQNRICTCRPGWYCALSKQEGCRLCAPLRKCRPGFGVARPGTETSDVVCKPCAPGTFSNTTSSTDICRPHQICNVVAIPGNASMDAVCTSTSPTRSMAPGAVHLPQPVSTRSQHTQPTPEPSTAPSTSFLLPMGPSPPAEGSTGD | 0.87 | 0.79 | 0.95 | – | – | –
Altebrel™ (the proposed etanercept biosimilar), lot 9202008 (Fc fusion, UniProt P20333 23-257, looked up, N-glycosylated at asparagine 149 and 171 (TNFr domain) and asparagine 317 (Fc domain); O-glycosylated (N-terminal peptide, linker domain, hinge, e.g. serine 259); C-terminal lysine cleaved; methionine oxidation in part (Met 30, 187, 272, 378, 448); amidation at glutamic acid 292 higher than in the originator) LPAQVAFTPYAPEPGSTCRLREYYDQTAQMCCSKCSPGQHAKVFCTKTSDTVCDSCEDSTYTQLWNWVPECLSCGSRCSSDQVETQACTREQNRICTCRPGWYCALSKQEGCRLCAPLRKCRPGFGVARPGTETSDVVCKPCAPGTFSNTTSSTDICRPHQICNVVAIPGNASMDAVCTSTSPTRSMAPGAVHLPQPVSTRSQHTQPTPEPSTAPSTSFLLPMGPSPPAEGSTGD | – | – | – | 0.88 | 0.84 | 0.91
